Measured values: US20210052557A1, “COMPOSITIONS FOR TREATING INFECTIVE ARTERIAL DISEASES AND RELATED CONDITIONS” (CENTRE FOR DIGESTIVE DISEASES, priority 2018, published 2021)

Test: Vitamin D blood levels in patients at high doses
Type: in vivo, human
Conditions: blood levels of around 200 to 375 nmol/l
From the text: In alternative embodiments, the pharmaceutical compositions, formulations, or products of manufacture further comprises: (a) a vitamin E, a tocotrienol, a natural tocopherol or a tocochromanol, a vitamin D, or any combination thereof, wherein optionally the vitamin D is formulated for use in doses of up to about 5000 to 20,000 units per day, optionally to achieve blood levels of about 150 to 375 nmol/l; (b) a penicillamine, or DEPEN™ or CUPRIMINE™; (c) an acetylcysteine or N-acetylcysteine (NAC), or ACETADOTE™, FLUIMUCIL™, MUCOMYST™; or (d) any combination of (a) to (c). […] These levels are non-toxic, for toxicity to occur much higher levels need to be reached.

Q: Which “toxicity of these blood levels” value does the source give for Vitamin D here?
A: non-toxic
